Patent US6911431B1 (priority 1989, dated 2005)

Legend:
[1] = Acute toxicity study, im injection; assay type: in vivo; conditions: about 10,000-times a therapeutic dosage
Excerpt: Summary: L-Glu-L-Trp when injected im at dosages calculated to be about 10,000-times a therapeutic dosage were non toxic in mice, guinea pigs, chickens, and dogs as determined by monitoring general condition, behavior, movements, cardiac and respiratory physiology, and gross pathology.

[2] = Chronic toxicity study, 28 days daily im or iv; assay type: in vivo, dogs and rats; conditions: daily single im or iv for 28 days
Description: Kidney function was determined by evaluation of diuresis after water-loading; for certain other experiments dogs and rats were sacrificed and examined after 10, 20, 30, and 60 days.

[3] = Solubility of purified dipeptide; assay type: physicochemical
Excerpt: Purification of the product peptides is accomplished for example by crystallizing the peptide from an organic solvent such as methyl-butyl ether, followed by dissolving in distilled water, and dialysis (if greater than about 500 molecular weight), thin layer chromatography, gel chromatography, lyophilization, or reverse HPLC (e.g., using a C18 column with 0.1% trifluoroacetic acid and acetonitrile as solvents) if less than 500 molecular weight. Purified peptide is lyophilized is stored in a dry state until use. […] [alpha22D=+12.6; C=0.5 H2O. Rf=0.65 (butanol: acetic acid: water=3:1:1). UV (275±5 nm, max). NMR (500 MHz): 0.001 mol/1 of the peptide solution, Trp (3.17; 3.37; 4.57; 7.16; 7.24; 7.71; 7.49); Glu (1.90; 1.96; 2.21; 3.72).

[4] = Pharmacokinetics and biodistribution GLP study, intranasal 14C-labelled dipeptide; assay type: in vivo, Sprague-Dawley rats; conditions: 110 μg/kg intranasally, rats
Description: ^14C-radiolabeled L-Glu-L-Trp (110 μg/kg) was administered intranasally to Sprague-Dawley rats. Blood and tissue samples were collected at different 0.5, 2, 8 or 24 hours and the amount of intact L-Glu-L-Trp was determined by HPLC. Tissue samples included packed red blood cells, white blood cells, liver, kidney, heart, lung spleen, thymus, brain, muscle, skin, fat, eye, ovaries, testes, submandibular lymph nodes, and the gastrointestinal tract with contents.

| Substance | Acute toxicity ([1]; chickens) | Acute toxicity ([1]; dogs) | Acute toxicity ([1]; guinea pigs) | Acute toxicity ([1]; mice) | Chronic toxicity [2] | Solubility in chloroform and ether ([3]; chloroform and ether) | Solubility in water, DMF ([3]; water, DMF) | Tissue elimination half-life [4] [h] | blood half life [4] | intact compound in blood at 30 minutes (HPLC) ([4]; sensitivity 5-101 ng/mL) |
| --- | --- | --- | --- | --- | --- | --- | --- | --- | --- | --- |
| L-Glu-L-Trp | non toxic | non toxic | non toxic | non toxic | without adverse effects | insoluble | soluble |  |  |  |
| 14C-radiolabeled L-Glu-L-Trp [14C-L-Glu-L-Trp] |  |  |  |  |  |  |  | 18.7 | less than 30 minutes | No intact compound was detected |
